Measured values from article PMC5681660, “Reduced hepatitis B and D viral entry using clinically applied drugs as novel inhibitors of the bile acid transporter NTCP” (Scientific Reports, 2017).

Molecular target: T1, human NTCP (Homo sapiens, UniProt Q14973)
T1 sequence (Q14973 1-349): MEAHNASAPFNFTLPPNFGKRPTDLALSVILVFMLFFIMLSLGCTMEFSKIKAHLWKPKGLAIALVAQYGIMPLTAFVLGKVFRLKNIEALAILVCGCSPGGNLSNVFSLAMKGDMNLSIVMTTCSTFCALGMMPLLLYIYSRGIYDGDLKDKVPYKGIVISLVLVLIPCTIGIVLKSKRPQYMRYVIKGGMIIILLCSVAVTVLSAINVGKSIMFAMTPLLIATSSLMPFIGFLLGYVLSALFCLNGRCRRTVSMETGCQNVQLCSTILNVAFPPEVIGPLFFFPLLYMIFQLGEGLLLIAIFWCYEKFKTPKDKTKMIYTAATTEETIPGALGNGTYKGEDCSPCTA
Assay: Screening fluorescent competitive Myrcludex B-FITC binding assay (96-well, 10 µM drug)
Conditions: for B-score binding assay / %NTCP binding: screening Myrcludex B-FITC binding, 10 µM drug; for remaining activity at 10 µM: 0.5 h, read-out: %NTCP binding, screening Myrcludex B-FITC binding, 10 µM drug, Prestwick library; for %NTCP binding: Prestwick library

Structure (SMILES): COCCCC/C(=N\OCCN)c1ccc(C(F)(F)F)cc1 [Fluvoxamine maleate]
- B-score binding assay: -0.934

Structure (SMILES): NC(=O)C[S+]([O-])C(c1ccccc1)c1ccccc1 (stereo not drawn) [Modafinil]
- remaining activity at 10 µM: 79.1%
- B-score binding assay: -1.282

Structure (SMILES): O=C(Nc1ccc([N+](=O)[O-])cc1Cl)c1cc(Cl)ccc1O [Niclosamide]
- B-score binding assay: -0.03

Structure (SMILES): COC1=CC(=O)C[C@@H](C)[C@]12Oc1c(Cl)c(OC)cc(OC)c1C2=O [Griseofulvin]
- B-score binding assay: 0.055

Structure (SMILES): CN(C)[C@@H]1C(O)=C(C(=O)NCNCCCC[C@H](N)C(=O)O)C(=O)[C@@]2(O)C(O)=C3C(=O)c4c(O)cccc4[C@@](C)(O)[C@H]3C[C@@H]12 [Lymecycline]
- B-score binding assay: -0.586

Structure (SMILES): C[C@@H]1C[C@H]2[C@@H]3C[C@H](F)C4=CC(=O)C=C[C@]4(C)[C@@]3(Cl)[C@@H](O)C[C@]2(C)[C@H]1C(=O)COC(=O)C(C)(C)C [Clocortolone pivalate]
- B-score binding assay (B-score): 1.016

Structure (SMILES): CC(=O)[C@@]1(O)CC[C@H]2[C@@H]3C[C@H](C)C4=CC(=O)C=C[C@]4(C)[C@@]3(F)[C@@H](O)C[C@@]21C [Fluorometholone]
- B-score binding assay: 0.269

Structure (SMILES): CC[C@@H](CO)NCCN[C@@H](CC)CO [Ethambutol dihydrochloride]
- B-score binding assay: 0.312

Structure (SMILES): O=C(OCCOCCO)c1ccccc1Nc1cccc(C(F)(F)F)c1 [Etofenamate]
- B-score binding assay: -4.604

Structure (SMILES): Clc1cc(Cl)c(OCC#CI)cc1Cl [Haloprogin]
- B-score binding assay (B-score): 4.032

Structure (SMILES): N#Cc1cc(NC(=O)C(=O)O)c(Cl)c(NC(=O)C(=O)O)c1 [Lodoxamide]
- B-score binding assay: 0.075
- %NTCP binding: 82.3017%

Structure (SMILES): CC(NC(C)(C)C)C(=O)c1cccc(Cl)c1 (stereo not drawn) [Bupropion hydrochloride]
- remaining activity at 10 µM: 60.3%
- B-score binding assay: -0.656

Structure (SMILES): CCCCC(CC)CN1CN(CC(CC)CCCC)CC(C)(N)C1 (stereo not drawn) [Hexetidine]
- B-score binding assay: -1.294

Structure (SMILES): CN1[C@@H]2CC(OC(=O)[C@H](CO)c3ccccc3)C[C@H]1[C@@H]1O[C@@H]12.Cl (stereo partly drawn) [Scopolamine hydrochloride]
- B-score binding assay: -0.469
- %NTCP binding: 76.4424%

Structure (SMILES): NC[C@H]1CC[C@H](C(=O)O)CC1 [Tranexamic acid]
- B-score binding assay: -2.357

Structure (SMILES): COc1ccc(-c2ccc3cc(C(=O)O)ccc3c2)cc1C12CC3CC(CC(C3)C1)C2 [Adapalene]
- B-score binding assay: -0.233

Structure (SMILES): C/C(=C(\CCOP(=O)(O)O)SC(=O)c1ccccc1)N(C=O)Cc1cnc(C)nc1N [Benfotiamine]
- B-score binding assay: 0.196

Structure (SMILES): OC(Cn1cncn1)(Cn1cncn1)c1ccc(F)cc1F [Fluconazole]
- B-score binding assay: -0.834

Structure (SMILES): COC(=O)C1=C(C)NC(C)=C(C(=O)OC(C)C)C1c1cccc2nonc12 (stereo not drawn) [Isradipine]
- B-score binding assay: -1.994

Structure (SMILES): C[N+]1(C)CCOC(O)(c2ccc(-c3ccc(C4(O)C[N+](C)(C)CCO4)cc3)cc2)C1.[Br-].[Br-] (stereo not drawn) [Hemicholinium bromide]
- B-score binding assay: 1.023

Structure (SMILES): CN(C)C/C=C(\c1ccc(Br)cc1)c1cccnc1.Cl.Cl.O [Zimelidine dihydrochloride monohydrate]
- B-score binding assay: -0.674

Structure (SMILES): C[C@]12CC[C@@H]3c4ccc(O)cc4CC[C@H]3[C@@H]1CC[C@@H]2O [Estradiol-17 beta]
- B-score binding assay: -1.447

Structure (SMILES): COc1ccccc1OCC(O)COC(N)=O (stereo not drawn) [Methocarbamol]
- B-score binding assay: 0.028

Structure (SMILES): CN(C)CCOc1ccc(/C(=C(/CCCl)c2ccccc2)c2ccccc2)cc1 [Toremifene]
- B-score binding assay: -0.396

Structure (SMILES): N#Cc1ccc(C(c2ccc(C#N)cc2)n2cncn2)cc1 [Letrozole]
- B-score binding assay: -0.633

Structure (SMILES): N=C(N)NC(=O)Cc1c(Cl)cccc1Cl [Guanfacine hydrochloride]
- B-score binding assay: -0.387

Structure (SMILES): Cc1[nH]cnc1CN1CCc2c(c3ccccc3n2C)C1=O [Alosetron hydrochloride]
- B-score binding assay: -0.152

Structure (SMILES): C/C=C(\C)C(=O)O[C@H]1[C@H](OC(C)=O)[C@@]2(CO)C(CC1(C)C)C1=CC[C@@H]3[C@@]4(C)CC[C@H](O[C@@H]5O[C@H](C(=O)O)[C@@H](O[C@@H]6O[C@H](CO)[C@@H](O)[C@H](O)[C@H]6O)[C@H](O)[C@H]5O[C@@H]5O[C@H](CO)[C@@H](O)[C@H](O)[C@H]5O)[C@H](CO)C4CC[C@@]3(C)[C@@]1(C)C[C@H]2O (stereo partly drawn) [Beta-Escin]
- B-score binding assay: -8.467

Structure (SMILES): Cc1cccn2c(=O)c(-c3nnn[nH]3)cnc12 [Pemirolast potassium]
- B-score binding assay: -0.574

Structure (SMILES): CCCOc1ccc2nc(NC(=O)OC)[nH]c2c1 [Oxibendazol]
- B-score binding assay: -1.969

Structure (SMILES): CC(=O)O[C@H]1C[C@@]2(C)[C@@H](C[C@@H](O)[C@H]3[C@@]4(C)CC[C@@H](O)[C@@H](C)[C@@H]4CC[C@@]32C)/C1=C(\CCC=C(C)C)C(=O)O [Fusidic acid sodium salt]
- B-score binding assay: 0.137

Structure (SMILES): CC(C)c1c(C(=O)Nc2ccccc2)c(-c2ccccc2)c(-c2ccc(F)cc2)n1CC[C@@H](O)C[C@@H](O)CC(=O)O [Atorvastatin]
- B-score binding assay: -0.008

Structure (SMILES): CC[C@H](C)[C@H]1O[C@]2(CC[C@@H]1C)C[C@@H]1C[C@@H](C/C=C(\C)[C@@H](O[C@H]3C[C@H](OC)[C@@H](O[C@H]4C[C@H](OC)[C@@H](O)[C@H](C)O4)[C@H](C)O3)[C@@H](C)/C=C/C=C3\CO[C@@H]4[C@H](O)C(C)=C[C@@H](C(=O)O1)[C@]34O)O2 [Ivermectin]
- B-score binding assay: -3.124

Structure (SMILES): CNc1ncnc2c1ncn2[C@@H]1O[C@H](CO)[C@@H](O)[C@H]1O [N6-methyladenosine]
- B-score binding assay: -0.333
- %NTCP binding: 74.8568%

Structure (SMILES): CC(C)Oc1ccc2c(=O)c(-c3ccccc3)coc2c1 [Ipriflavone]
- B-score binding assay: -1.051

Structure (SMILES): O=C(O)c1ccccc1Nc1cccc(C(F)(F)F)c1 [Flufenamic Acid, Flufenamic acid]
- B-score binding assay: -1.667

Structure (SMILES): NS(=O)(=O)c1cc(C2(O)NC(=O)c3ccccc32)ccc1Cl (stereo not drawn) [Chlorthalidone]
- B-score binding assay: 1.936

Structure (SMILES): CCOC(=O)OC(C)OC(=O)[C@@H]1N2C(=O)[C@@H](NC(=O)[C@H](N)c3ccccc3)[C@H]2SC1(C)C (stereo partly drawn) [Bacampicillin hydrochloride]
- B-score binding assay: 0.086

Structure (SMILES): CN1CCCC(CC2c3ccccc3Sc3ccccc32)C1 (stereo not drawn) [Metixene hydrochloride]
- B-score binding assay: -0.556

Structure (SMILES): O=c1[nH]c(=O)n([C@H]2C[C@H](O)[C@@H](CO)O2)cc1I [Idoxuridine]
- B-score binding assay: -0.75

Structure (SMILES): Cc1c(C)c2c(c(C)c1O)CCC(C)(C(=O)O)O2 (stereo not drawn) [Trolox]
- B-score binding assay: -1.293

Structure (SMILES): C=C1c2cccc(O)c2C(=O)C2=C(O)[C@]3(O)C(=O)C(C(N)=O)=C(O)[C@@H](N(C)C)[C@@H]3[C@@H](O)[C@H]12 [Methacycline hydrochloride]
- B-score binding assay: -2.293

Structure (SMILES): CC(C)NCC(O)COc1ccc(COCCOC(C)C)cc1 (stereo not drawn) [Bisoprolol fumarate]
- B-score binding assay: -2.08

Structure (SMILES): CC(=O)N(O)CCCCCNC(=O)CCC(=O)N(O)CCCCCNC(=O)CCC(=O)N(O)CCCCCN [Deferoxamine mesylate]
- B-score binding assay: -0.769

Structure (SMILES): C[C@]12CC[C@@H]3c4ccc(OS(=O)(=O)O)cc4CC[C@H]3[C@@H]1CCC2=O [Estropipate]
- B-score binding assay: -2.364

Structure (SMILES): [H]/N=C(/N)N[C@H]1[C@H](O)[C@@H](O)[C@H](O[C@@H]2O[C@@H](C)[C@](O)(C=O)[C@H]2O[C@@H]2O[C@@H](CO)[C@H](O)[C@@H](O)[C@@H]2NC)[C@@H](N/C(N)=N\[H])[C@@H]1O [Streptomycin sulfate]
- B-score binding assay: -7.065

Structure (SMILES): CC(=O)c1ccc2c(c1)N(CCCN1CCC(CCO)CC1)c1ccccc1S2 [Piperacetazine]
- B-score binding assay: 1.105

Structure (SMILES): CSc1nc2cc(Cl)c(Oc3cccc(Cl)c3Cl)cc2[nH]1 [Triclabendazole]
- B-score binding assay: -0.027

Structure (SMILES): CCCN(CCC)C(=O)C(CCC(=O)O)NC(=O)c1ccccc1 (stereo not drawn) [Proglumide]
- B-score binding assay: -2.435

Structure (SMILES): CCOc1ccc2ccccc2c1C(=O)N[C@@H]1C(=O)N2[C@@H]1SC(C)(C)[C@@H]2C(=O)O [Nafcillin sodium salt monohydrate]
- B-score binding assay: -2.394

Structure (SMILES): CO[C@]12C[C@@H](COC(=O)c3cncc(Br)c3)CN(C)[C@@H]1Cc1cn(C)c3cccc2c13 [Nicergoline]
- B-score binding assay: 0.26

Structure (SMILES): Nc1c2ccccc2nc2ccccc12 [Aminacrine]
- B-score binding assay: 0.016

Structure (SMILES): CC(C(=O)O)c1ccc(-c2ccccc2)c(F)c1 (stereo not drawn) [Flurbiprofen]
- B-score binding assay: 1.247

Structure (SMILES): COCCOC(=O)C1=C(C)NC(C)=C(C(=O)OC/C=C/c2ccccc2)C1c1cccc([N+](=O)[O-])c1 (stereo not drawn) [Cilnidipine]
- B-score binding assay: -0.361

Structure (SMILES): CCOC(=O)O[C@]1(C(=O)OCCl)CC[C@H]2[C@@H]3CCC4=CC(=O)C=C[C@]4(C)[C@H]3[C@@H](O)C[C@@]21C [Loteprednol etabonate]
- B-score binding assay: -0.063

Structure (SMILES): CN(C)CCN(Cc1ccccc1)c1ccccn1 [Tripelennamine hydrochloride]
- B-score binding assay: 0.048

Structure (SMILES): Cc1c(NC(=O)c2cccnc2)c(=O)n(-c2ccccc2)n1C [Nifenazone]
- B-score binding assay: -0.604

Structure (SMILES): CCc1cc(C(N)=S)ccn1 [Ethionamide]
- B-score binding assay: -2.732

Structure (SMILES): O=c1cc(-c2ccc(O)c(O)c2)oc2cc(O)cc(O)c12 [Luteolin]
- B-score binding assay: -0.068

Structure (SMILES): Oc1c(I)cc(Cl)c2cccnc12 [Clioquinol]
- B-score binding assay: -0.219

Structure (SMILES): CO[C@H]1/C=C/O[C@@]2(C)Oc3c(C)c(O)c4c(O)c(c(/C=N/N5CCN(C6CCCC6)CC5)c(O)c4c3C2=O)NC(=O)/C(C)=C\C=C\[C@H](C)[C@H](O)[C@@H](C)[C@@H](O)[C@@H](C)[C@H](OC(C)=O)[C@@H]1C [Rifapentine]
- B-score binding assay: -2.82

Structures can show the parent of a compound that is named as a salt.
